The results in this text go back to patent publication US20050095674A1, “Cannabinoid receptor interacting proteins and methods of use” (priority 2003, published 2005).

Protein sequences, listed by entry. Tags and fused reporters are not part of them. Residues count along the entry.
UniProt P20272, 1-464 limits assumed: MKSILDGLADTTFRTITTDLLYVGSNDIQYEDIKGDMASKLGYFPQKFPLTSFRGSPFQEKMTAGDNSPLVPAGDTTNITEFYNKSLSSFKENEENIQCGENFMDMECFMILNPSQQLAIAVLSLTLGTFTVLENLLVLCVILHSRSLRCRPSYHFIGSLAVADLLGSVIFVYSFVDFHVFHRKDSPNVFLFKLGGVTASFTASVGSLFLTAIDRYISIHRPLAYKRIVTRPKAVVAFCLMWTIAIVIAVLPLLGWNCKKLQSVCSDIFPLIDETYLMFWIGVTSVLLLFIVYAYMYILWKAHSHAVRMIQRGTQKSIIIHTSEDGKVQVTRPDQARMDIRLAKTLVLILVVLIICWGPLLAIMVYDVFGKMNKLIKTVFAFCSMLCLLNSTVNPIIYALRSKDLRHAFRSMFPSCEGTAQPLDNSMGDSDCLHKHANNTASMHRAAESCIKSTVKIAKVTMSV
UniProt P20272, whole entry: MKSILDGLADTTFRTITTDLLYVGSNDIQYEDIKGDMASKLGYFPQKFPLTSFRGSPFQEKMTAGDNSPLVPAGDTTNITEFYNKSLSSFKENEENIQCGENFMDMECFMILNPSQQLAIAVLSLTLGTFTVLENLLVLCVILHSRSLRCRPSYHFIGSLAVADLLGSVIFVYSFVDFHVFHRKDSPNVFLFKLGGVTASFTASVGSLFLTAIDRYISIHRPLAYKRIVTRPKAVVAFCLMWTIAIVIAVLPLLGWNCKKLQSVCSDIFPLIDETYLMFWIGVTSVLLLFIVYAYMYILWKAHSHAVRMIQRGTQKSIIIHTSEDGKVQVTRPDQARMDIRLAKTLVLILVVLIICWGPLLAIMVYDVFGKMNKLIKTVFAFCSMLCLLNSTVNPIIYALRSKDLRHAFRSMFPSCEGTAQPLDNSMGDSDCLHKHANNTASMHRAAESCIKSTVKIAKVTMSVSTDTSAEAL

The structures appear in SMILES notation.

The target of test [1] is T1, CB1-464 truncated receptor (Rattus norvegicus, UniProt P20272).
T1 construct: expressed in transfected cells
The test can be described thus: Whole-cell patch clamp of Ca2+ currents in SCG neurons expressing the CB1-464 truncated receptor. The conditions noted are these: CB1-464 versus wild type CB1. The test is classed as cell-based. (Patch clamp records ionic current or voltage across a cell membrane.)

The target in test [2] is T2, CB1 cannabinoid receptors (Rattus norvegicus, UniProt P20272).
T2 construct: Cerebellar granule neurons express endogenous CB1 cannabinoid receptors; endogenous in cells; host or cells: primary rat cerebellar granule neurons
The test can be described thus: GIRK currents in cerebellar granule neurons, patch clamp, cannabinoid agonists. The test is classed as cell-based. The conditions noted are these: 1 μM; step from -60 to -100 mV; 30 mM KCl.

`Cc1c(C(=O)c2cccc3ccccc23)c2cccc3c2n1[C@H](CN1CCOCC1)CO3` [WIN 55,212-2]: the “agonist effect on Ca2+ current, truncated receptor compared to wild type CB1 receptor” value in test [1] is reported as “showed a trend to increase that was close to significance”. Also, in test [2], the “activation of GIRK currents” value was “GIRK currents were activated”.
